We go through 1 substance from patent US20250361273A1, “METHODS AND COMPOSITIONS” (priority 2024, published 2025).

This assay has as its system MC4R vs MC1R. The experiment in a line: Selectivity calculation MC4R vs MC1R (division of cAMP EC50 values). The format is cell-based, human. Conditions: Table 5. As to the method: Peptides, including comparator molecules were tested by assays listed below. Selectivity between receptors was assessed in part using cAMP assays, which test the activity of peptides through the Gs pathway.
Selectivity between any two receptors was calculated by a division of the EC50 values between the two receptors, for each individual peptide.

As to a-MSH, the “Selectivity: MC4R v MC1R (Larger numbers indicate selectivity towards MC4R)” value is 0.07.
